This is an account of results in patent publication US20240239885A1, “ANTIBODY CONJUGATE COMPRISING ANTI-P-CADHERIN ANTIBODY AND USES THEREOF” (WUXI BIOLOGICS IRELAND LIMITED, priority 2021, published 2024).

Sequences of proteins named here, by UniProt entry; tags and fusion partners are left off. Residues count along the entry.
UniProt P22223, 108-829: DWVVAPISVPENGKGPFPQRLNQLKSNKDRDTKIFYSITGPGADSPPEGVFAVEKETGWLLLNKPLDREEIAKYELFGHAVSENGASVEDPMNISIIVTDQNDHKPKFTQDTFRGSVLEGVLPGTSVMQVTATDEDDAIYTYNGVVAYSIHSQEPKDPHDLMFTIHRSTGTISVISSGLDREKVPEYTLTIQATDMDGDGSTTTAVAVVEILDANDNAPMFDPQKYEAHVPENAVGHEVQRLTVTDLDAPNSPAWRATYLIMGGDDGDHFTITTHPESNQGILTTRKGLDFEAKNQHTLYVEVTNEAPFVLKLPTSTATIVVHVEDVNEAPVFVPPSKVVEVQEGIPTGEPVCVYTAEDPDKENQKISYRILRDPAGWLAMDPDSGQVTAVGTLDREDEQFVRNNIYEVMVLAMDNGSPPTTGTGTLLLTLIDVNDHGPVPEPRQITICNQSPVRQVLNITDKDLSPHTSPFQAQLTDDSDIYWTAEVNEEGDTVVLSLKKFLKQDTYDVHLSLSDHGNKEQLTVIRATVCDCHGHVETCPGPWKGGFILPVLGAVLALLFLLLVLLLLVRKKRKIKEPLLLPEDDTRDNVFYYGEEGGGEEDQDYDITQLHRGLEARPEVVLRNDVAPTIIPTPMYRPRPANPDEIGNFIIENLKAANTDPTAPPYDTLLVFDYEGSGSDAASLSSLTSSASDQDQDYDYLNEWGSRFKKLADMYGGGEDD

The subject of one data set is NCI-H1650 cells. In words: Cytotoxicity assay of ADC (Cell Titer Glo) on NCI-H1650. To be noted: read-out: IC50 (nM), ADC cytotoxicity; NCI-H1650, 5 days. A general note: Cellular ATP, detected with luciferase, serves as a proxy for viable cell number.
Data set [1] deals with T1, human P-cadherin expressed on cells (human, UniProt P22223 108-829).
T1 construct: whole, on cells; also called CDH3; Cadherin-3
The data set can be described thus: FACS on HCT-116 cells after 0 days in human serum at 37 C. How it is done:
The antibody stability in human serum was tested by FACS. Briefly, human serum was freshly isolated by centrifuging the fresh blood twice at 4000 rpm for 10 minutes. […] As a control, antibodies serum mix was frozen immediately without 37° C. incubation. For the FACS analysis, the samples from different time points were free-thawed simultaneously at 4° C. […] The cells were washed twice with 1% BSA/1×PBS (Ca+/Mg+). Alexa647 conjugated Goat anti-human IgG Fc (Jackson, #109-605-098) 1:500 diluted in 1% BSA/1×PBS (Ca+/Mg+) were added to the cells and incubated at 4° C. for 30 minutes. Cells were washed twice in the same buffer and the mean fluorescence (MFI) of stained cells was measured using a FACS Canto II cytometer (BD Biosciences) and analyzed by FlowJo. Wells containing no antibody or secondary antibody only were used to establish background fluorescence. Four-parameter non-linear regression analysis was used to obtain EC50 values for cell binding using GraphPad Prism6 software.

By IC50 is commonly meant the concentration that inhibits the measured activity by half. In general, EC50 refers to the concentration needed to bring the measured effect to its halfway point.

With `CC[C@H](C)[C@@H]([C@@H](CC(=O)N1CCC[C@H]1[C@H](OC)[C@@H](C)C(=O)N[C@H](C)[C@@H](O)c1ccccc1)OC)N(C)C(=O)[C@@H](NC(=O)[C@@H](NC)C(C)C)C(C)C` [Free drug (MMAE), mono-methyl auristatin E], the IC50 in the data set with NCI-H1650 cells amounted to 0.15 nM.

B1: W3195-1.53.1-p1-uIgG1L-MMAE (antibody, V domains shown)
VH: QVQLQESGPGLVKPSETLSLTCTVSGGSVISDNYYWTWVRQPPGKGLEFIGYIYYRGSTNYNPSLKNRVIISIDTSRNQFSLDLNSVTAADTAVYYCARDRRTGNSLPFDNWGQGTLVTVSS
VL: SYELTQPPSVSVSPGQTAQITCSGDKLGDKFASWYQQKSGQSPVVVIYQDNKRPSGFPERFSGSNSGNTATLTISGTQAMDEADYYCQAWDSSIVVFGGGTKLTVLG
modifications: MC-vc-PAB-MMAE conjugated to cysteine thiols after TCEP reduction (positions not stated); HIC-DAR 3.86 per antibody
notes: also called W3195-p1-MMAE; WBP3195-p1-ADC
With B1, in data set [1], the EC50 is 0.14 nM.
